Data on 1 molecule can be found in publication PMC5183561.

The test addresses human recombinant kappa opioid receptor (human), P41145. Description: radioligand binding.

B1: dynorphin A (peptide)
chain: YGGFLRRIRPKLKWDNQ
modifications: not checked
On to B1, for which the pKi was 10.3.
